System: mice-embryo fibroblast
Assay: Stimulation of the production of soluble GAG in mice-embryo fibroblast cultures, uptake of ^35 S
Type: cell-based, mice (strain C57 BL/6 stCrl)

N[C@H]1C(O)O[C@H](CO)[C@@H](O)[C@@H]1O.O=S(=O)(O)O (stereo partly drawn)
Soluble GAG synthesis, average ± s.e. (10 γ/ml): 7250 ± 905 cpm | Soluble GAG synthesis, average ± s.e. (50 γ/ml): 11430 ± 1108 cpm | Soluble GAG synthesis, average ± s.e. (100 γ/ml): 9980 ± 1271 cpm

— patent US4642340A, “Stable compounds of glucosamine sulphate” (Rotta Research Laboratorium S.p.A., priority 1981, dated 1987)
